The results in this text go back to PubChem BioAssay AID1865 (National Center for Advancing Translational Sciences (NCATS), 2009).

Several values for one entry are separate records, joined by “and”; a condition that tells them apart may be missing. Equal values may be shown once. Only a part is listed here, and it is no random draw. Activity calls are given as the source filed them. Calls follow the shape of the dose curve; as a rule, active = well fitted activation curve with a large enough effect; inconclusive = small, poorly fitted or top-dose-only effect; inactive = flat fitted curve, though single readings scatter.

This assay is described as follows: Quantitative High-Throughput Screen for Regulators of Epigenetic Control. Also: % of control where 0% means no effect; nearly all actives have a fitted effect of over 60% in size. The conditions noted are these: murine LDR cells, GFP reporter derepression, 30 h. From the text:
NIH Molecular Libraries Screening Centers Network [MLPCN] NIH Chemical Genomics Center [NCGC] MLSCN Grant: 1 X01 MH079860-01 Assay Provider: Elisabeth D. Martinez, University of Texas SW Medical Center NCGC Assay Overview: The Locus Derepression (LDR) assay detects the derepression or induction of a GFP reporter that is stably integrated in a genomic region of murine cells that is presumably silenced. Transcription of the GFP reporter is controlled by a CMV promoter, which normally is constitutively active. However, this cell line, termed LDR, was selected for lack of constitutive production of GFP. GFP production can be induced by incubating the cells with histone deacetylase or DNA methyltransferase inhibitors (Martinez et al., 2006). Compounds that derepress or induce this reporter locus are identified by enumerating GFP positive cells using a laser-scanning microplate cytometer (Auld et al., 2006). This assay was screened against the MLSMR earlier (AID 597; (Johnson et al., 2008) and has been rescreened here against the expanded collection.
NCGC Assay Protocol Summary: Three hundred LDR cells in 5 uL per well were dispensed into black, clear-bottom 1536-well plates. Twenty-three nL compound was transferred to the assay plate and cells were incubated 30 hours at 37 C. Medium was removed, cells were washed two times with PBS, and GFP-positive cells were enumerated as fluorescent objects between the sizes of 20 to 120 um width and depth using an Acumen Explorer. References Auld, DS, Johnson, RL, Zhang, YQ, Veith, H, Jadhav, A, Yasgar, A, Simeonov, A, Zheng, W, Martinez, ED, Westwick, JK, Austin, CP, Inglese, J (2006). Fluorescent protein-based cellular assays analyzed by laser-scanning microplate cytometry in 1536-well plate format. Methods Enzymol 414: 566-89. Johnson, RL, Huang, W, Jadhav, A, Austin, CP, Inglese, J, Martinez, ED (2008). A quantitative high-throughput screen identifies potential epigenetic modulators of gene expression. Anal Biochem 375: 237-48. Martinez, ED, Dull, AB, Beutler, JA, Hager, GL (2006). High-content fluorescence-based screening for epigenetic modulators. Methods Enzymol 414: 21-36.

Setting [1] is: at 53.9 µM (top of the series) unless noted.

For `c1nnnn1CCn1cnnn1`, the GFP activation under setting [1] was inactive: 0%.
On the same count and under the same terms, next, `C[C@H]1OP(=O)(Oc2ccccc2)C[C@@H]2O[C@@H]21` (stereo not given in full): inactive: 6.12%; `C[C@@H]1C=CCP(=O)(Oc2ccccc2)O1` (stereo not given in full): inactive: 0%.
On the same count and under the same terms, next, `CC(=O)Nc1ccc(Oc2c([N+](=O)[O-])cc([N+](=O)[O-])cc2[N+](=O)[O-])cc1`: inactive: 0.234%.
Same read-out and setting: next, `CC(=O)Nc1ccc([As](=O)(O)O)c(O)c1`: inactive: 0%.
As for `CCOc1ccc(C2=NCC(CBr)S2)cc1` (stereo not given), the GFP activation under setting [1] is inactive: 0%.
On the same count and under the same terms, next, `O=P1(Nc2nc3ccc(Cl)cc3s2)COc2ccccc2O1` (stereo not given): inactive: -0.952%; `CC(C)(C)C(=O)NC(Sc1ccccc1)C(Cl)(Cl)Cl` (stereo not given): inactive: -2.82%.
The same measure, in the same setting: the same measure for `CCC(=O)N1C2C3N(C(=O)CC)C1C1N(C(=O)CC)C(C(N1C(=O)CC)N3C(=O)CC)N2C(=O)CC`: inactive: 0.758%.
On the same count and under the same terms, next, `CN(C(=O)Cc1ccc(Cl)c(Cl)c1)[C@@H]1CCCC[C@@H]1N1CCCC1`: inactive: -0.144%; `Cc1ccc(OP(=O)(Nc2ccccn2)Oc2ccc(C)cc2)cc1`: inactive: 2.99%.
Take `CC(=O)NC(SC(=S)N(CC(C)C)CC(C)C)C(Cl)(Cl)Cl` (stereo not given): under setting [1], the GFP activation was inactive: 0.102%.
With `COC(=O)c1cc2c(s1)N=C(c1ccccc1)N(C)P2(=O)N1CCOCC1` (stereo not given), the GFP activation under setting [1] is inactive: -1.06%.
For `O=c1c2cc([N+](=O)[O-])ccc2[nH]c2c([N+](=O)[O-])cc([N+](=O)[O-])cc12`, the GFP activation under setting [1] was inactive: -7.45%.
Still for that read-out and setting: the same measure for `CN(C)C(=O)Oc1noc2ccccc12`: inactive: -1.06%.
With `Cc1ccccc1OP(=O)(Nc1ccccn1)Oc1ccccc1C`, the GFP activation under setting [1] is inactive: -2.41%.
For `CCOC(=O)NC(Sc1ccccc1)C(Cl)(Cl)Cl` (stereo not given), under setting [1], the GFP activation was inactive: -2.33%.
On to `Cc1ccc(NP(=O)(Oc2cccc(C)c2)Oc2cccc(C)c2)nc1`, for which the GFP activation under setting [1] is inactive: 2.02%.
Consider `c1ccc(-c2nn[nH]n2)c(-c2nn[nH]n2)c1`, for which the GFP activation under setting [1] was inactive: -1.59%.
As for `CCNC(=S)/N=C(\N)N[N+](=O)[O-]`, the GFP activation under setting [1] is inactive: -1.28%.
On the same count and under the same terms, next, `O=C(NC1CCS(=O)(=O)C1)NP(=S)(Oc1ccccc1)Oc1ccccc1` (stereo not given): inactive: -1.63%; `O=[N+]([O-])CC(O)c1ccc([N+](=O)[O-])cc1` (stereo not given): inactive: 3.41%.
For `NC(=O)Nc1ccc([As](=O)(O)O)cc1`, the GFP activation is, setting by setting: (at 16.9 µM (top of the series)) inactive: 1.05%; (at 53.9 µM (top of the series)) inactive: 5.27%.
`CN(C(=O)Cc1ccccc1)[C@@H]1CC[C@]2(CCCO2)C[C@H]1N1CCCC1`: the GFP activation under setting [1] was inactive: 1.11% and inactive: -1.22%.
The same measure, in the same setting: next, `CCOP1(=S)c2c(C)nn(CCC#N)c2N=C(c2ccc(F)cc2)N1C` (stereo not given): inactive: -5.03%; `O=[N+]([O-])c1ccc2c(c1)nnn2O`: inactive: 0.0207%.
Same read-out and setting: the same measure for `O=P(Nc1nccs1)(Oc1ccccc1)Oc1ccccc1`: inactive: -1.18%.
On the same count and under the same terms, next, `O=P(Nc1nccs1)(c1ccccc1)c1nc2ccccc2s1` (stereo not given): inactive: 3.17%; `CCOP1(=S)c2c(C)nn(CCC#N)c2N=C(c2ccccc2F)N1C` (stereo not given): inactive: -1.08%.
Consider `Nc1ccccc1[As](=O)(O)c1ccccc1`, for which the GFP activation under setting [1] is inactive: 0%.
Take `O=C(O)COc1ccc([As](=O)(O)O)cc1[N+](=O)[O-]`: the GFP activation under setting [1] was inactive: 2.76%.
The same measure, in the same setting: next, `Nc1cccc2c([As](=O)(O)O)cccc12`: inactive: 0%.
Still for that read-out and setting: the same measure for `Cc1ccc(NCCc2c([N+](=O)[O-])cc([N+](=O)[O-])cc2[N+](=O)[O-])cc1`: inactive: 1.32%; for `CCCOP(=S)(Nc1nc(N)cc(=O)[nH]1)OCCC`: inactive: -1.42%; for `CCOP(=O)(Nc1cccc2ccccc12)OCC`: inactive: 0.156%.
On the same count and under the same terms, the same measure for `COc1cc(C2NCCC3(OCCO3)C2(C)C)cc(OC)c1OC` (stereo not given): inactive: -0.917%; for `CN(C(=O)Cc1ccc(Cl)c(Cl)c1)[C@@H]1CC[C@]2(CCCO2)C[C@H]1N1CCCC1`: inactive: 0% and inactive: 1.22%; for `O=C(OC1CN2CCC1CC2)c1ccc(Cl)cc1` (stereo not given): inactive: 2.45%.
As for `O=[As](O)(O)c1cccnc1`, under setting [1], the GFP activation was inactive: -0.99%.
Same read-out and setting: the same measure for `COc1cc(C(=O)NCC2(N3CCOCC3)CCCCC2)cc(Cl)c1OC(C)C`: inactive: -6.78%; for `Cc1cccc(OCC(=O)OC2CN3CCC2CC3)c1` (stereo not given): inactive: 0.153%.
Same read-out and setting: next, `O=[As](O)(c1cccc(O)c1)c1cccc(O)c1`: inactive: 5.34%; `CC(C)/C=N\N=C(\N)N[N+](=O)[O-]`: inactive: -1.37%.
As for `CN(C(=O)Cc1ccc(Cl)c(Cl)c1)[C@@H]1CCCC[C@H]1N1CCCC1`, under setting [1], the GFP activation is inactive: -1.82% and inactive: 0% and inactive: -0.167%.
Same read-out and setting: next, `O=[As](O)(c1ccccc1Br)c1ccccc1Br`: inactive: 1.05%.
Same read-out and setting: the same measure for `O=P1(Nc2ccccn2)COc2ccccc2OC1`: inactive: -0.952%; for `CCOP(=O)(Nc1ccc(C)cn1)OCC`: inactive: -1.03%.
Still for that read-out and setting: next, `CN(CCCl)Cc1cc(Cl)c(NC2=NCCN2)c(Cl)c1`: inactive: 5.26% and inactive: -0.144%; `CC(C)(C)C(=O)NC(Sc1ncccn1)C(Cl)(Cl)Cl` (stereo not given): inactive: -1.73%.
